For one substance, Km and kcat results are on record in publication PMC2919393.

Data set [1] has as its system Cc1cc(=O)oc2cc(NC(=O)[C@@H](N)CC(=O)O)ccc12. Nature of the data set: purified protein. The note with it: no added CaCl2 (the +1.2 mM CaCl2 row is separate in the table), 0.02 M Tris-HCl pH 7.4, 37 °C.
In data set [2] the test system is Cc1cc(=O)oc2cc(NC(=O)[C@@H](N)CCC(=O)O)ccc12. In words: purified protein. To be noted: no added CaCl2 (the +1.2 mM CaCl2 row is separate in the table), 0.02 M Tris-HCl pH 7.4, 37 °C.

By Km is commonly meant the concentration of substrate that gives half-maximal velocity. The term kcat denotes the number of substrate molecules converted per active site and unit of time at saturation. On to rhiminopeptidase A (Bitis rhinoceros), for which, in data set [1], the Michaelis constant (Km) came to 4.119 ± 0.135 mM and the catalytic constant (kcat) came to 5.3 s⁻¹. Further, in data set [2], the Michaelis-Menten constant (Km) turned out to be 2.235 ± 0.089 mM and the kcat was 25.2 s⁻¹.
